Columns and labels:
[1] = target: T1, Replicase polyprotein 1ab (Severe acute respiratory syndrome coronavirus 2, UniProt P0DTD1); assay: Inhibition of SARS CoV-2 Main protease using MCA-AVLQSGFR-Lys(DNP)-Lys-NH2 peptide as substrate by fluorescence based analysis
[2] = target: T1, Replicase polyprotein 1ab; assay: Inhibition of SARS CoV-2 Main protease incubated for 10 min by FRET assay

## O=c1c2ccccc2[se]n1-c1ccc([N+](=O)[O-])cc1
[1]
  IC50: 260 nM

## O=C[C@H](C[C@@H]1CCNC1=O)NC(=O)[C@@H]1[C@H]2CCC[C@H]2CN1C(=O)CCc1cccc(F)c1
[2]
  IC50: 7.6 nM

## O=C[C@H](C[C@@H]1CCNC1=O)NC(=O)[C@@H]1[C@H]2CCC[C@H]2CN1C(=O)COc1ccc(Cl)cc1
[2]
  IC50: 9.2 nM

— ChEMBL document CHEMBL5244279, “Perspectives on SARS-CoV-2 Main Protease Inhibitors” (J Med Chem, 2021)
